The text below walks through data of PMC3303751, “Development of Tyrosine-Based Radiotracer ^99mTc-N4-Tyrosine for Breast Cancer Imaging” (Journal of Biomedicine and Biotechnology, 2012).

The data set concerns breast tumor (13762) and turpentine oil-induced inflammation. Briefly: Tumor and inflammation uptake comparison, micro-PET. As to conditions: tumor- and inflammation-bearing rats; for inflammation-to-muscle (I/M) ratio / tumor-to-inflammation (T/I) ratio / tumor-to-muscle (T/M) ratio: 500 μCi/rat i.v.

Turning to ^18F-2-deoxy-2-fluoro-glucose, where the note is “30 min”, the “inflammation-to-muscle (I/M) ratio” value was determined as 3.43, the “tumor-to-inflammation (T/I) ratio” value was 1.71 and the “tumor-to-muscle (T/M) ratio” value worked out at 5.88. For the same substance, under “60 min”, the “inflammation-to-muscle (I/M) ratio” value is 3.77, the “tumor-to-inflammation (T/I) ratio” value was found to be 1.99 and the “tumor-to-muscle (T/M) ratio” value was determined as 7.54. Besides, where the note is “90 min”, the “inflammation-to-muscle (I/M) ratio” value is reported as 2.72, the “tumor-to-inflammation (T/I) ratio” value was 1.8 and the “tumor-to-muscle (T/M) ratio” value turned out to be 4.9. Besides, the “tumor-to-inflammation (T/I) ratios” value (all time points) is reported as “greater than 1”.
